This is an account of results in article PMC8699518 (Biomolecules, 2021).

Amino acid sequences for entries named in this document (tags omitted). Residues count along the entry.
UniProt P01574, 22-187: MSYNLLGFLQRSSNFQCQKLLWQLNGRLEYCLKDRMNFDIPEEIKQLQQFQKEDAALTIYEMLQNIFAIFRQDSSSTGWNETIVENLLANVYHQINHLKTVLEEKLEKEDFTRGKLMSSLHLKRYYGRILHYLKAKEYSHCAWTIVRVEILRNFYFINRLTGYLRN

In experiment [1] the target is T1, recombinant glycosylated IFN-β (Pharmapark, Moscow, Russia) (Homo sapiens, UniProt P01574, glycosylated).
T1 construct: human interferon beta, glycosylated form (IFN-β-1a); also called IFN-β-1a; IFNβ-1a; source: bought: Pharmapark
The experiment can be described thus: ELISA; Kd by the method of Friguet with the Klotz equation; recombinant antibody and IFN-β in solution at equilibrium, free antibody measured by ELISA. The settings on record: both partners purified. On the technique in general: An ELISA detects its analyte on a solid surface through an enzyme-linked reagent.

Experiment [2] deals with T1, recombinant glycosylated IFN-β …. Description: cell-based or functional assay.

B1: humanized B16 antibody (antibody, V domains shown)
VH: EVQLVESGGGLVQPGGSLRLSCAASGFTFTSYTMSWVRQAPGKGLEWVSYISNGGGSTYYPDTVKGRFTISRDNSKNTLYLQMNSLRAEDTAVYYCAKLDWVFAYWGQGTLVTVSS
VL: DIQLTQSPSFLSASVGDRVTITCKASQDVGTAVAWYQQKPGKAPKLLIYWASTRHTGVPSRFSGSGSGTEFTLTISSLQPEDFATYYCLQYSSFPYTFGQGTKLEIK
In the case of B1, the Kd (in general, the constant that tells how readily two partners part at equilibrium) in experiment [1] was 3.3 nM.

B2: chimeric antibody B16 (antibody, V domains shown)
VH: EVKLVESGGGLVQPGGSLKLSCAASGFTFTSYTMSWVRQTPEKRLEWVAYISNGGGSTYYPDTVKGRFTISRDNAKNTLYLQMSSLKSEDTAMYYCARLDWVFAYWGQGTLVTVSA
VL: DIVMTQSHKFMSTSVGDRVSITCKASQDVGTAVAWYQQKPGQSPKLLIYWASTRHTGVPDRFTGSGSGTDFTLTISNVQSEDLADYFCLQYSSFPYTFGGGTKLEIK
Regarding B2, in experiment [1], the Kd turned out to be 3.2 nM. Besides, in experiment [2], the “IC50 of the inhibition of the antiproliferative effect of IFN-β (100 pg/mL) on HT29 cells with 0.5 × 10^6 PBMC/mL, MTT; antibody 0.5–100 μg/mL” value was 21.8 µg/mL.
